Amino acid sequences for entries named in this document (tags omitted). Residues count along the entry.
UniProt P05067, 672-691 limits assumed: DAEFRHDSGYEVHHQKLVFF

In patent publication US10995119B2, “Peptide exhibiting hydrolytic activity and use thereof” (Okinawa Institute of Science and Technology School …, priority 2016, dated 2021):

Target: Aβ1-20 (Homo sapiens, UniProt P05067)
Experiment: Hydrolysis activity against Aβ1-20
Details: Tris buffer solution (50 mmol/l, pH 7.5); 3 or 5 days

## KYEGHWYPEKPYKGSGFRCIHI [JAL]
  hydrolysis activity against Aβ1-20: exhibited activity
